Target: T1, human CD38 (Homo sapiens, UniProt P28907)
T1 construct: CD38, human; Used for both the SPR and the cryo-EM complex; probably a soluble extracellular form
Assay: SPR; Biacore 8 K
Conditions: both partners purified

By UniProt entry, the sequences of proteins in these tests, tags left out. Residues count along the entry.
UniProt P28907, 45-300: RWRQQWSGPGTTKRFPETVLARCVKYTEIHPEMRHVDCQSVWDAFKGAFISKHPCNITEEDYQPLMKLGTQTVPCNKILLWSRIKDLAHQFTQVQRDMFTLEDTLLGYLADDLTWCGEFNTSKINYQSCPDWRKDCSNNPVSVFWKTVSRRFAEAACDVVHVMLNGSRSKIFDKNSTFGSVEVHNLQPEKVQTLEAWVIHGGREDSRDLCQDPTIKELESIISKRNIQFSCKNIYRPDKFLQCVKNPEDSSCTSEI

Kd: 2.55 nM
B1: FTL004, humanized IgG1κ anti-CD38 mAb (antibody, V domains shown)
VH: QVQLVQSGSELKKPGASVKVSCKASGYTFTDYNVHWIRQAPGQGLEWIGYFYPRNGATHYNQKFTGRAVLSADTSVSTAYLQISSLKAEDTAVYFCARGETPGTFPYWGQGTLVTVSS
VL: DIVLTQSPASLAVSPGQRATITCRASESVDNFGITFMHWYQQKPGQPPKLLIYRASNLESGVPARFSGSGSRTDFTLTINPVEANDTANYYCQQSSKDPRTFGQGTKLEIK
